Measured values: patent US20250136553A1, “ACYLSULFONAMIDE KAT6A INHIBITORS” (Olema Pharmaceuticals, Inc., priority 2023, published 2025)

By UniProt entry, the sequences of proteins in these tests, tags left out. Residues count along the entry.
UniProt Q92794, 507-778: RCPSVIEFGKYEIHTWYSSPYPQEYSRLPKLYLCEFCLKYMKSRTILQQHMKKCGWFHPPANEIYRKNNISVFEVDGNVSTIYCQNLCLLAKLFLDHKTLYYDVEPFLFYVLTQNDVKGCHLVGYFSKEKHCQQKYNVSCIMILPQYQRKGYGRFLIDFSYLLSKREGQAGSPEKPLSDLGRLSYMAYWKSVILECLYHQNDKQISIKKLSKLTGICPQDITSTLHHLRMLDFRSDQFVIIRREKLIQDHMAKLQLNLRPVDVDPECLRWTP

Target: human-KAT6A (MYST domain 507-778 aa) (Homo sapiens (Human), UniProt Q92794)
Experiment: KAT6A biochemical assay (TR-FRET)
Conditions: histone H4 peptide 200 nM, acetyl-CoA 600 nM
Source text: TR-FRET based methods were used for assaying compounds of the present invention for KAT6A enzyme inhibitory activity. TR-FRET is a homogeneous proximity assay where Europium-labelled anti-acetyl lysine antibody binds to the acetylated substrate labelled with biotin, which in turn binds to streptavidin-labelled APC fluorescence acceptor. Europium can transfer energy to APC in the complex and the interaction of two dye-labelled binding partners is detected by the energy transfer between a donor and an acceptor dye and the subsequent light emission by the acceptor dye. KAT6A transfer an acetyl group from acetyl CoA to lysine amino acids of histones/target proteins. […] The plate is further incubated at 25° C. on shaker at 300 rpm and is read in TR-FRET mode (Ex:340 nm; Em: 615 nm and 665 nm) on a plate reader to achieve ˜5-7-fold activity. The percent inhibition was calculated from the ratio of the fluorescence (FL) intensities [(F665/F615)×10000) using the formula […]. IC50 values of the compounds were determined by fitting the dose-response data to sigmoidal curve fitting equation using Graph pad prism software V9.

How did the IC50 turn out when `COc1cccc(OC)c1S(=O)(=O)NC(=O)c1ccc(Cn2cccn2)c(OC)n1` [Compound 203, 5-((1H-pyrazol-1-yl)methyl)-N-((2,6-dimethoxyphenyl)sulfonyl)-6-methoxypicolinamide] was run?
Its IC50 is 9 nM.
